Patent US20260167638A1, “PHARMACEUTICAL COMPOUND, SALTS THEREOF, FORMULATIONS THEREOF, AND METHODS OF MAKING AND USING SAME” (Genentech, Inc., priority 2018, published 2026)

Test: Solubility in pure water at 25° C. with PXRD of solid residues
Type: physicochemical
Details: one hour
Procedure: The benzenesulfonate (besylate), ethanedisulfonic (edisylate), 1,5-naphthalenedisulfonic (napadisylate), and p-tolunesulfonic (tosylate) salts of Compound I were also prepared. Using a similar strategy as described above, these salts were prepared by evaporation from a solution of free base and acid in a solvent (e.g., methanol-dichloromethane 1:1, ethyl acetate-dichloromethane 1:2, isopropanol, and the like). If necessary, an amorphous salt produced in this way was crystallized by stirring the amorphous material in an appropriate solvent (e.g., ethyl acetate, acetonitrile, and the like).

Cn1cc(-c2cn(-c3ccc(OC(F)(F)F)cc3)c(=O)c3ncn(C)c23)cn1.O=S(=O)(O)O [mono-sulfate amorphous]
S 1 hr: 1.26 mg/mL
